Test results reported in ChEMBL document CHEMBL4834419 (J Med Chem, 2021).

By UniProt entry, the sequences of proteins in these tests, tags left out. Where a name states a change or a piece, a line headed by the entry shows the natural chain unless it says otherwise.
UniProt P10276, whole entry: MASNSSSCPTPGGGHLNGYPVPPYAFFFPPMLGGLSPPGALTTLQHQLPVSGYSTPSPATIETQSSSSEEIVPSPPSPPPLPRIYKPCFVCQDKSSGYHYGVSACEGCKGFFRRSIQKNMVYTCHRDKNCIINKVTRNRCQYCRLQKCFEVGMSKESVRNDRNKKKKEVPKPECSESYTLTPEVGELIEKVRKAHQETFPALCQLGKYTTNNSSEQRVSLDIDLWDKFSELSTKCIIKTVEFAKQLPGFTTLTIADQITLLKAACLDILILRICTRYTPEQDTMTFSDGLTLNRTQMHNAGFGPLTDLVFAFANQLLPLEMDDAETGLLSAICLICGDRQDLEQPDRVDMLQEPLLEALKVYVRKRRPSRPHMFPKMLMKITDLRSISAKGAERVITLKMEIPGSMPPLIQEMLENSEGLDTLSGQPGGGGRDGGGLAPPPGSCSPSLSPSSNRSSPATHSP
UniProt P37231: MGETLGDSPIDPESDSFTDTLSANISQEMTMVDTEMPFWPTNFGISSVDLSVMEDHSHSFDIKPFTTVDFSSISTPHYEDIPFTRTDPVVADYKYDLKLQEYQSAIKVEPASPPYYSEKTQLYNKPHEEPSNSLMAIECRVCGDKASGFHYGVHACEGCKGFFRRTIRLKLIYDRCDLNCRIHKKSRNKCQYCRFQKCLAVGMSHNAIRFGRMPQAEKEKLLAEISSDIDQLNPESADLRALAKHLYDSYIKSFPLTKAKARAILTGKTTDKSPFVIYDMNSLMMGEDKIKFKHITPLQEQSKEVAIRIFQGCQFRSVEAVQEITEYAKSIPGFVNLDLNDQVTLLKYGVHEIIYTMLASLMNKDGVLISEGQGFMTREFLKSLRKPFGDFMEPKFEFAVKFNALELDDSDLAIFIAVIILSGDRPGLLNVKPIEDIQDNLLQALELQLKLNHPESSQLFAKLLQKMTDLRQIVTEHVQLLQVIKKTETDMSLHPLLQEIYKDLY
UniProt Q13133, whole entry: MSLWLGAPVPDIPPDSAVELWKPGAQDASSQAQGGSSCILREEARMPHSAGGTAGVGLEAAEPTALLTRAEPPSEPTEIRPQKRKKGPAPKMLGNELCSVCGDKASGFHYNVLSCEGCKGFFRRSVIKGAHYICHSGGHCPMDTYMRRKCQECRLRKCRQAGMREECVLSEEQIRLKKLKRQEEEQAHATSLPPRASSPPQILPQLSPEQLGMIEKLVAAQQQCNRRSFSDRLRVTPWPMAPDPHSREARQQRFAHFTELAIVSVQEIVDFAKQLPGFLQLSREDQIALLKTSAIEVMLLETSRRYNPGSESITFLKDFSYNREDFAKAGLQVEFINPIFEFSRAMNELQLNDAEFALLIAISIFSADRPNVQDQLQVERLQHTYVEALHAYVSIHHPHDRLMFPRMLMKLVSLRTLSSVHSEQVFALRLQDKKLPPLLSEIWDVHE
UniProt P55055, whole entry: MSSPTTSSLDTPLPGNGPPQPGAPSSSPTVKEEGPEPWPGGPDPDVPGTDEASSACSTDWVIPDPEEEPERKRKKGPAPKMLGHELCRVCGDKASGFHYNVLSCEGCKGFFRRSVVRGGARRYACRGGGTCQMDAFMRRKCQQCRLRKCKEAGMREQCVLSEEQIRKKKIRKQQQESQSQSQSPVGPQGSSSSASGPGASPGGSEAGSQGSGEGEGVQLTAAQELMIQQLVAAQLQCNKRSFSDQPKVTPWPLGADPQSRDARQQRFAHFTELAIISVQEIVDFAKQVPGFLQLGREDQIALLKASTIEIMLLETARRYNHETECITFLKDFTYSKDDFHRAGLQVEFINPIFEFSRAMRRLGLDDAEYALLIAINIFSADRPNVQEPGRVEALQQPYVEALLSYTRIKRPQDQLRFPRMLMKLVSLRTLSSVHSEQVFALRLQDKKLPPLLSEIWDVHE

Columns and labels:
Type in all cases: cell-based
Settings in all cases: filed as agonist, time 14-16 hrs
[1] = target: Retinoic acid receptor alpha (Homo sapiens) (UniProt P10276); test: Agonist activity against human RARalpha in human HEK293T cells co-expressing pFR/pRL-Luc assessed as receptor activation at 10 uM incubated for 14 to 16 hrs by hybrid reporter gene assay relative to bexarotene
Procedure, shortened: (§1)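 Gal4 hybrid reporter assay in HEK293T cells, seeded 24 h before transfection (Lipofectamine LTX, Opti-MEM) with pFR-Luc, pRL-SV40 and pFA-CMV plasmid carrying the hinge region and LBD of the human receptor. After 5 h, compound added in 0.1% DMSO, with 0.1% DMSO alone as untreated control. Dual-Glo luciferase read after 14−16 h; firefly/renilla normalized; duplicates, ≥2 independent experiments.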

[2] = target: T1, Peroxisome proliferator-activated receptor alpha (Homo sapiens) (UniProt Q07869); test: Agonist activity against human PPARalpha in human HEK293T cells co-expressing pFR/pRL-Luc assessed as receptor activation at 10 uM incubated for 14 to 16 hrs by hybrid reporter gene assay relative to bexarotene; procedure, shortened: as §1
T1 sequence (whole entry): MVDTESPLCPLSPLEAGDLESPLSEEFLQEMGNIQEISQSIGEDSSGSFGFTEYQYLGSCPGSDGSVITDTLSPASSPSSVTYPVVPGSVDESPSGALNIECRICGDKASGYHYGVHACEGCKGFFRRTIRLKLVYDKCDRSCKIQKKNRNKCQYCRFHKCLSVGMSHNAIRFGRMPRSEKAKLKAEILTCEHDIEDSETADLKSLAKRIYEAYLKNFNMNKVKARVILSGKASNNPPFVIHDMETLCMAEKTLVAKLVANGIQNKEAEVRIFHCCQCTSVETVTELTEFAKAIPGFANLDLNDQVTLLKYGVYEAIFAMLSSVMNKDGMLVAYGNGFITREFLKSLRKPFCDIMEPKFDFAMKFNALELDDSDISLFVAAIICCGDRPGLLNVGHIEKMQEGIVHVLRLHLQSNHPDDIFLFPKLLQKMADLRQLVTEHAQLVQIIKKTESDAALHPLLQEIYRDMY

[3] = target: Peroxisome proliferator-activated receptor gamma (Homo sapiens) (UniProt P37231); test: Agonist activity against human PPARgamma in human HEK293T cells co-expressing pFR/pRL-Luc assessed as receptor activation at 10 uM incubated for 14 to 16 hrs by hybrid reporter gene assay relative to bexarotene; procedure, shortened: as §1
[4] = target: T2, Peroxisome proliferator-activated receptor delta (Homo sapiens) (UniProt Q03181); test: Agonist activity against human PPARdelta in human HEK293T cells co-expressing pFR/pRL-Luc assessed as receptor activation at 10 uM incubated for 14 to 16 hrs by hybrid reporter gene assay relative to bexarotene; procedure, shortened: as §1
T2 sequence (whole entry): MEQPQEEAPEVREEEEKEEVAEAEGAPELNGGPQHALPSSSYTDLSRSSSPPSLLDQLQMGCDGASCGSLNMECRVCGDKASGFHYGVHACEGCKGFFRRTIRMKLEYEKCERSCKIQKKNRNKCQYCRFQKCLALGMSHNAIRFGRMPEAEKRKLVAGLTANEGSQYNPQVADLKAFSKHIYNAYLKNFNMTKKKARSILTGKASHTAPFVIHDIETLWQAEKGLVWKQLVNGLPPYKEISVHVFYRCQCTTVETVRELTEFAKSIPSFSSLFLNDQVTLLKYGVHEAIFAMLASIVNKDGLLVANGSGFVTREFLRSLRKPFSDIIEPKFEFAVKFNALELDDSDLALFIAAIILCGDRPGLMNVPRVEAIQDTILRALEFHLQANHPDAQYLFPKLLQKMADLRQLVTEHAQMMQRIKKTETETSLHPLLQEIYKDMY

[5] = target: Oxysterols receptor LXR-alpha (Homo sapiens) (UniProt Q13133); test: Agonist activity against human LXRalpha in human HEK293T cells co-expressing pFR/pRL-Luc assessed as receptor activation at 10 uM incubated for 14 to 16 hrs by hybrid reporter gene assay relative to bexarotene; procedure, shortened: as §1
[6] = target: Oxysterols receptor LXR-beta (Homo sapiens) (UniProt P55055); test: Agonist activity against human LXRbeta in human HEK293T cells co-expressing pFR/pRL-Luc assessed as receptor activation at 10 uM incubated for 14 to 16 hrs by hybrid reporter gene assay relative to bexarotene; procedure, shortened: as §1
[7] = target: T3, Bile acid receptor (Homo sapiens) (UniProt Q96RI1); test: Agonist activity against human FXR in human HEK293T cells co-expressing pFR/pRL-Luc assessed as receptor activation at 10 uM incubated for 14 to 16 hrs by hybrid reporter gene assay relative to bexarotene; procedure, shortened: as §1
T3 sequence (whole entry): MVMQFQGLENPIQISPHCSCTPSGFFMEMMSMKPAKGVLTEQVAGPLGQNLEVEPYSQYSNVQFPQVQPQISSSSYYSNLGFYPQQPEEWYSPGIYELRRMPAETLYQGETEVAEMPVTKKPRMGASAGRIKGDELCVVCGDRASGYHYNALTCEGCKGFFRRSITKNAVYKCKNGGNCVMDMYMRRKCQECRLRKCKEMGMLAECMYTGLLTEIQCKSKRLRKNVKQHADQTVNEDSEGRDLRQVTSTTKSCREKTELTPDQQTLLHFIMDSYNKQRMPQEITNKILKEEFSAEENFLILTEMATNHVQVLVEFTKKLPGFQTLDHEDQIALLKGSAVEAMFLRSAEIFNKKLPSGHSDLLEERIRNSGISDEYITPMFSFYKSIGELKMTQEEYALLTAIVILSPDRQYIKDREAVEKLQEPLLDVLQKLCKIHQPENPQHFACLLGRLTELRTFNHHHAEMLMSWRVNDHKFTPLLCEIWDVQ

[8] = target: T4, Retinoic acid receptor RXR-alpha (Homo sapiens) (UniProt P19793); test: Agonist activity against human RXRalpha in human HEK293T cells co-expressing pFR/pRL-Luc assessed as receptor activation at 10 uM incubated for 14 to 16 hrs by hybrid reporter gene assay relative to bexarotene; procedure, shortened: as §1
T4 sequence (whole entry): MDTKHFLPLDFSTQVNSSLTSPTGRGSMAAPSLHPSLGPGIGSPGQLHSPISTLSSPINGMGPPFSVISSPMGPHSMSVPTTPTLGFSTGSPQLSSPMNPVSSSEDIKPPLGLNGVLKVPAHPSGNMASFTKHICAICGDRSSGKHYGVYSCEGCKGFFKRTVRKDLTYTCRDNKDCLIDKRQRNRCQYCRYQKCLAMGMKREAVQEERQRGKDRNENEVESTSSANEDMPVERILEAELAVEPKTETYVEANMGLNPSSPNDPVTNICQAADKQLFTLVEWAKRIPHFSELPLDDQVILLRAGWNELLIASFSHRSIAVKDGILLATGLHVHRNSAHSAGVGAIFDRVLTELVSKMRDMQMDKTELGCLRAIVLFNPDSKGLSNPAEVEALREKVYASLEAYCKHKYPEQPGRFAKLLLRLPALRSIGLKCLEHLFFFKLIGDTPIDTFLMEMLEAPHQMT

[9] = target: T5, Retinoic acid receptor RXR-gamma (Homo sapiens) (UniProt P48443); test: Agonist activity against human RXRgamma in human HEK293T cells co-expressing pFR/pRL-Luc assessed as receptor activation at 10 uM incubated for 14 to 16 hrs by hybrid reporter gene assay relative to bexarotene; procedure, shortened: as §1
T5 sequence (whole entry): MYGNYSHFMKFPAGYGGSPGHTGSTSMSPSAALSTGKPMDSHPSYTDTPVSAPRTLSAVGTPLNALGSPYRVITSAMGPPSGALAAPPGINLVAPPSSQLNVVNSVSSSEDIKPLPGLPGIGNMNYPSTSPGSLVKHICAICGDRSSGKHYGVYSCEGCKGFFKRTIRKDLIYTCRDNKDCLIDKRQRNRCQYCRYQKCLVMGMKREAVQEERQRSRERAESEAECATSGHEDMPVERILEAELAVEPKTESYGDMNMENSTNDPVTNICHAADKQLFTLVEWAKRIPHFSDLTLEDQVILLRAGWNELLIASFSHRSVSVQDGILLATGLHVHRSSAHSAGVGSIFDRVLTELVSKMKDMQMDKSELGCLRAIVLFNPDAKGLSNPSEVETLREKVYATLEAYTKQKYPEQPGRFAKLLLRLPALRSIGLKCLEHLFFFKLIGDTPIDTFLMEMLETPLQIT

Structure (SMILES) | Activity [1] [%] | Activity [2] [%] | Activity [3] [%] | Activity [4] [%] | Activity [5] [%] | Activity [6] [%] | Activity [7] [%] | Activity [8] [%] | Activity [9] [%]
O=C(O)CCc1nc(-c2ccccc2)c(-c2cc(C(F)(F)F)cc(C(F)(F)F)c2)o1 | 1 | 3 | 7 | 1 | 1 | 2 | 1 | 80 | 115
O=C(O)CCc1cc(-c2cc(Cl)cc(Cl)c2)n(-c2ccc(Cl)cc2)n1 | 5 | 6 | 7 | 7 | 4 | 4 | 2 | 34 | 93
